Values quoted from earlier work in patent publication US20030143729A1 (Synaptic Pharmaceutical Corporation, priority 1992, published 2003).

Target: T1, GAT-3 (Rattus norvegicus, UniProt P31647)
T1 sequence (P31647 1-627): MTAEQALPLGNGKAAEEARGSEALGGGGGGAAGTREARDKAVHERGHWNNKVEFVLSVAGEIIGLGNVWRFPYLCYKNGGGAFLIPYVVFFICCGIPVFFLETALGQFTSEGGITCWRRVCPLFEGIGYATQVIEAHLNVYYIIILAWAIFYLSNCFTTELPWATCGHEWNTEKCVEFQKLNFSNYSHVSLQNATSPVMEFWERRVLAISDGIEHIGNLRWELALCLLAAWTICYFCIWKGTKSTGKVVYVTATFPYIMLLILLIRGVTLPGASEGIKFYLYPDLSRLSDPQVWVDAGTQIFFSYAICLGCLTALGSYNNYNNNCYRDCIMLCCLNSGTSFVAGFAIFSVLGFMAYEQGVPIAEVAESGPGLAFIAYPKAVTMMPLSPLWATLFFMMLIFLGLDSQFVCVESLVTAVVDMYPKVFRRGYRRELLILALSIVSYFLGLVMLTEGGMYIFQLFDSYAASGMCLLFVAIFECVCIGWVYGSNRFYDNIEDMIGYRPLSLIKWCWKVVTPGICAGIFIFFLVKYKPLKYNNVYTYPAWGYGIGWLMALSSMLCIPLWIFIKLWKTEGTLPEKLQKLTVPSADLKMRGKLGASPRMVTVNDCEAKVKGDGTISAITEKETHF
Details: read-out: Km for GABA, GAT-3 (ref. 9); cited from earlier work

NCCCC(=O)O [GABA, gamma-aminobutyric acid]
Km: 10 µM
